The values that follow are results of earlier work, collected in publication PMC4426000.

The Kd is the concentration at which binding is half-saturated.

In the data set the target is eNOS (UniProt P29474).

As to calmodulin (from UniProt P0DP23), the Kd is under 1 nM.
